# Yeast mating assay 1: variants of the scFv Ab-14

Values reported by Engelhart et al. 2022, doi:10.1038/s41597-022-01779-4 (FLAb copy).

The target is the same throughout: PDVDLGDISGINAS, from the HR2 region of SARS-CoV-2 spike.

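Phage display of a naive human antibody library on the peptide gave the parent. AAYL50 was designed without a model: most single CDR substitutions and a random sample of double and triple ones. AlphaSeq pools MATa yeast showing the antibodies with MATalpha yeast showing the peptide. Pairs that bind mate more often; barcode pairs of the diploids are counted by sequencing. Read counts were normalised to the haploid input and turned into Kd by a linear fit to BCL2-family pairs of known affinity, for each replicate. Mating was done three times.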

Ab-14 is the parent antibody, in scFv form: VH, then three GGGGS repeats, then VL. The heavy chain is unchanged in all variants.
VH: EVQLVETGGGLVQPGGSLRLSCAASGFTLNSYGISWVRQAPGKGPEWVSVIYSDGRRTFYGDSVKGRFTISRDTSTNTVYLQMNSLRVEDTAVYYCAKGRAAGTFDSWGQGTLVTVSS
VL: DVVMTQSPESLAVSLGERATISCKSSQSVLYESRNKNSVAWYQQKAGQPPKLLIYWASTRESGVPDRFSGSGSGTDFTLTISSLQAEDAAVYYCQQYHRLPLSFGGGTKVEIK

Each variant's VL is given in full.
This list gathers variants with a substitution at S33 (VL, numbered from residue 1).
Affinities are written as log10 Kd with Kd in nM; a lower number is a better binder.
Replicates are averaged; those with no signal do not enter the mean.
"nd" marks a missing value. The strain was present, yet no cells mated with the target were sequenced in any replicate, which points to weak or no binding.
In this assay the parent's reference entry averaged 0.65; its copy inside this library read 1.68.
As a blank, each scFv also met three strains without target: over library AAYL50, 18% of these pairings were detected, typically at 4.19 and seldom below 2.99.

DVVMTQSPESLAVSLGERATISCKSSQSVLYEERNKNKVAWYQQKAGQPPKLLIYWAQTRESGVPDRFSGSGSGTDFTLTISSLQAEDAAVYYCQQYHRLPLSFGGGTKVEIK: 3.84 (2 of 3 replicates).
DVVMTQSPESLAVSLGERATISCKSSQSVLYETRLKNSVAWYQQKAGQPPKLLIYWASTDESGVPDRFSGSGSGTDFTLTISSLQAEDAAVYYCQQYHRLPLSFGGGTKVEIK: nd (0 of 3 replicates).
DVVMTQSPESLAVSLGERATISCKSSQLVLYEHRNKNSVAWYQQKAGQPPKLLIYWASYRESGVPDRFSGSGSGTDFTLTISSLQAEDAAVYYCQQYHRLPLSFGGGTKVEIK: nd (0 of 3 replicates).
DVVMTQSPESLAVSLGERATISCRSSQSVLYMARNKNSVAWYQQKAGQPPKLLIYWASTRESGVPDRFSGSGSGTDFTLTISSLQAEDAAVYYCQQYHRLPLSFGGGTKVEIK: 2.89 (3 of 3 replicates).
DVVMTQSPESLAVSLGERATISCKSSQSVLYECRNKNSVAWYQQKAGQPPKLLIYWASTRESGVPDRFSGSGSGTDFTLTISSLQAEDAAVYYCQQVHRAPLSFGGGTKVEIK: nd (0 of 3 replicates).
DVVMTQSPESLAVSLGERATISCKSSQSVLYEAANKNSCAWYQQKAGQPPKLLIYWASTRESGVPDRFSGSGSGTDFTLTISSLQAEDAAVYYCQQYHRLPLSFGGGTKVEIK: 3.42 (3 of 3 replicates).
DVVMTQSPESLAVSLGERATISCKSSQSVLYMPRNKNSVAWYQQKAGQPPKLLIYWASTRESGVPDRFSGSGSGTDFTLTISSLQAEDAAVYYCQQPHRLPLSFGGGTKVEIK: 0.82 (3 of 3 replicates).
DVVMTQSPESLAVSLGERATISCKCSQSVLYEDRNKNSVAWYQQKAGQPPKLLIYWAFTRESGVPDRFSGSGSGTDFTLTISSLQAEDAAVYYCQQYHRLPLSFGGGTKVEIK: 1.54 (3 of 3 replicates).
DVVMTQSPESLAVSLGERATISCKSSQSVLYEYRNCNSVAWYQQKAGQPPKLLIYWASTRESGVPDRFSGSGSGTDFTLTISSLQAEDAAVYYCQFYHRLPLSFGGGTKVEIK: 1.37 (3 of 3 replicates).
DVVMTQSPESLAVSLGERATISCKSSQSVLHEFRNKNSVAWYQQKAGQPPKLLIYWASTRESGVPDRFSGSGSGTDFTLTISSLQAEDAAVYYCQQYHYLPLSFGGGTKVEIK: 1.98 (3 of 3 replicates).
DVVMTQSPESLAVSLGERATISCKSSQSVYYEPRNKNSVAWYQQKAGQPPKLLIYWAETRESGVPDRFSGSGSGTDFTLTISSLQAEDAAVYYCQQYHRLPLSFGGGTKVEIK: 0.86 (3 of 3 replicates).
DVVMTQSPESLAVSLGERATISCKSSQSVLYEFRNKNSVAWYQQKAGQPPKLLIYWASTRESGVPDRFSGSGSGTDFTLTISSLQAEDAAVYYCQQYHRHPLSFGGGTKVEIK: 4.39 (1 of 3 replicates).
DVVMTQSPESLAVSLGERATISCKSSQSVLYECRNKNSVAWYQQKAGQPPKLLIYWASTRNSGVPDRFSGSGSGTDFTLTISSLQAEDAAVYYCQQYHRLPMSFGGGTKVEIK: 4.22 (1 of 3 replicates).
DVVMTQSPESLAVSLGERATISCKSSQSVLYELRNKNSVAWYQQKAGQPPKLLIYWASGRGSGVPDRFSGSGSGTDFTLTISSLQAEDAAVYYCQQYHRLPLSFGGGTKVEIK: nd (0 of 3 replicates).
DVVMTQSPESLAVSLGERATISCKSSQSVLYERRNKNSVAWYQQKAGQPPKLLIYWASTRESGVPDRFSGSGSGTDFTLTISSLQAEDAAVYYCQQYHCLALSFGGGTKVEIK: 2.25 (3 of 3 replicates).
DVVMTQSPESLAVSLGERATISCKSSQSSLYEDRNKNSVAWYQQKAGQPPKLLIYWASTRMSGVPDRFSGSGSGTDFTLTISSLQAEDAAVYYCQQYHRLPLSFGGGTKVEIK: 0.48 (3 of 3 replicates).
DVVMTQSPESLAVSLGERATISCKSSQSVLYEVRNKNYVAWYQQKAGQPPKLLIYWASTIESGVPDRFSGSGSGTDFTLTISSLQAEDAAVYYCQQYHRLPLSFGGGTKVEIK: 4.05 (1 of 3 replicates).
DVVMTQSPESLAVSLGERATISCKSSQSVLAECRNKNSVAWYQQKAGQPPKLLIYWASTRESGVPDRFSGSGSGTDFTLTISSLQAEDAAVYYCQQYHRLPISFGGGTKVEIK: 4.34 (1 of 3 replicates).
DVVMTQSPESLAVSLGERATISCKSSQSVLYEVRNKNSVAWYQQKAGQPPKLLIYSASTRNSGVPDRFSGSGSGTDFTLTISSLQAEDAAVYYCQQYHRLPLSFGGGTKVEIK: 0.86 (3 of 3 replicates).
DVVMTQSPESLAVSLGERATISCKASQSVCYEKRNKNSVAWYQQKAGQPPKLLIYWASTRESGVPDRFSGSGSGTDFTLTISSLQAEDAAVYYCQQYHRLPLSFGGGTKVEIK: 2.56 (3 of 3 replicates).
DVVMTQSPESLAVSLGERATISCKSNQSVLYEQRNKNSVEWYQQKAGQPPKLLIYWASTRESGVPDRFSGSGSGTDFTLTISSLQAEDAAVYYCQQYHRLPLSFGGGTKVEIK: 5.21 (1 of 3 replicates).
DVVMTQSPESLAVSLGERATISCKSSRSVLYENRLKNSVAWYQQKAGQPPKLLIYWASTRESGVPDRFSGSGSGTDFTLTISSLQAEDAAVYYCQQYHRLPLSFGGGTKVEIK: 1.35 (3 of 3 replicates).
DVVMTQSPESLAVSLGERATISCKSSQSVLYSYLNKNSVAWYQQKAGQPPKLLIYWASTRESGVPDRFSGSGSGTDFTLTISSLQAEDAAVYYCQQYHRLPLSFGGGTKVEIK: 0.66 (3 of 3 replicates).
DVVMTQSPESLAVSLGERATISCKISQSVLYEYRNKNSVAWYQQKAGQPPKLLIYWRSTRESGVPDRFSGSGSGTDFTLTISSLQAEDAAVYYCQQYHRLPLSFGGGTKVEIK: 1.34 (3 of 3 replicates).

The 3 strongest on average among those seen in every replicate, once more:

| VL | log10 Kd (nM), mean | detected |
|---|---|---|
| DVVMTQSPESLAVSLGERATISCKSSQSSLYEDRNKNSVAWYQQKAGQPPKLLIYWASTRMSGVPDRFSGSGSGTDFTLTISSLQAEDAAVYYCQQYHRLPLSFGGGTKVEIK | 0.48 | 3/3 |
| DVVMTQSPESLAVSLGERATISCKSSQSVLYSYLNKNSVAWYQQKAGQPPKLLIYWASTRESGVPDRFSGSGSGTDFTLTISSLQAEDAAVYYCQQYHRLPLSFGGGTKVEIK | 0.66 | 3/3 |
| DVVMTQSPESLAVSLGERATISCKSSQSVLYMPRNKNSVAWYQQKAGQPPKLLIYWASTRESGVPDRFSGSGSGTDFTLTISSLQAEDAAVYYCQQPHRLPLSFGGGTKVEIK | 0.82 | 3/3 |